Experimental data taken from patent publication US20060062842A1, “Method of administering a compound to multi-drug resistant cells” (Alza Corporation, priority 1998, published 2006).

System: M109R-HiFR cells
Assay: Cellular and nuclear doxorubicin quantitation
Settings: 1 to 4 hours exposure of tumor cells

In the case of COc1cccc2c1C(=O)c1c(O)c3c(c(O)c1C2=O)C[C@@](O)(C(=O)CO)C[C@@H]3O[C@H]1C[C@H](N)[C@H](O)[C@H](C)O1 [Free Doxorubicin, doxorubicin], the “metabolites detected in cells” value is reported as “no significant amounts of metabolites were detected”.
